Source: PubChem (ICCB-Longwood Screening Facility, Harvard Medical School)
The entries come from a sample that favours hits as a whole.
GIV-Gai inh = inhibitors of GIV GBA-motif binding to rat Galpha-i3; percent of control (FP), % (concentration not given with the values); AID 1224905; Galpha-i3/FITC-GIV peptide fluorescence polarization, 90 min; stronger effect = lower value; scaled: aluminum fluoride 0%, vehicle 100%; 210,000 compounds, 0.42% hits; P08753;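 active means replicate mean at 85% of control or lower, very high polarization wells dropped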;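 further: wells of about 15 µL received 100 nL stock; the first replicate is given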
HCMV NEC inh = inhibitors of HCMV UL50-UL53 nuclear egress complex interaction. HTRF UL50-UL53 interaction, normalized percent inhibition. inhibition, % (concentration not given with the values). hit rate 0.15% among 190,000; in the data active = inhibition above about 27%, passing the limit was not always enough
Numbers without * were called inactive; x = no result given.

SMILES	GIV-Gai inh	HCMV NEC inh
C=CCn1c(C)c(/C=C/C2=CCN(C)CC2)c2ccccc21	-11.2*	-65.5
Cc1cc(N2CCCC2)ccc1/C=C/C1=CCN(C)CC1	113.3	34.6
O=C(c1cc2n(n1)CCCN(Cc1ccc(F)cc1)C2=O)N1CCCC1	101.8	-27.3
Cc1ccc(-n2c(-c3cccc(C)c3)nc3c(cnn3-c3ccccc3)c2=O)cc1	109.0	6.9
Cc1cccc(-c2nc3c(cnn3-c3ccccc3)c(=O)n2-c2ccc(Br)cc2)c1	110.4	56.5*
COc1cc(C(=O)Nc2ccc3oc(-c4cccc(Br)c4)nc3c2)cc(OC)c1OC	103.7	-24.3
O=C(NCc1ccccc1)c1cc(C2CC2)[nH]n1	101.4	-12.2
COC(=O)C1=C(C)NC(=O)/C1=C\c1cccc2ccccc12	112.8	x
O=C1/C(=C/c2cccc3ccccc23)Nc2ccccc21	56.6*	-8.7
CCCn1c(=O)n(C)c(=O)c2c(SCc3nc(-c4cccc(Cl)c4)no3)nc(CC(C)C)nc21	x	7.7
CNC(=O)N1CCCC1c1cc(C(C)C)no1 (configuration not stated)	102.5	x
CC(C)C(NC(=O)COc1ccc(Br)cc1)C(=O)O (configuration not stated)	105.8	-20.3
CCN(CC)c1ccc2cc(C#N)c(=O)oc2c1	x	-19.5
CCCCCCc1cc2cc(C#N)c(=O)oc2cc1O	-3.8*	-20.2
O=C(CN1c2ccc(F)cc2-c2ccccc2S1(=O)=O)Nc1ccc(F)cc1F	103.1	-19.9
CCC(C)C(=O)N1c2ccc(C)cc2C(=C2SC(C(=O)OC)=C(C(=O)OC)S2)C(=S)C1(C)C (configuration not stated)	105.0	x
Cc1ccc(CSc2nc(=O)n(Cc3ccccc3)c3c2CCC3)cc1	105.8	0.5
Cc1ccc(NC(=O)c2sc3nc(-c4cc5ccccc5oc4=O)[nH]c(=O)c3c2C)c(C)c1	25.1*	-8.9
Cc1c(C(=O)Nc2ccccc2)sc2nc(-c3cc4ccccc4oc3=O)[nH]c(=O)c12	102.1	1.9
O=C(/C=c1/[nH]c(=O)/c(=C/c2ccccc2C(F)(F)F)s1)c1ccco1	x	-10.5
CN(C)/C=c1\s/c(=C/C(=O)c2cccs2)[nH]c1=O	72.5*	-90.8
O=C1c2ccccc2-[n+]2ccc3c([nH]c4ccccc43)c21	x	60.8*
O=C1C(c2c(O)[nH]c3ccccc23)=Nc2ccccc21	x	-14.6
FC(F)(F)c1nc(N2CCCC2)nc2c1CCCCC2	100.5	x
O=C1C=C(C(F)(F)F)c2ccc(NC3CCCCC3)c3cccc1c23	-83.8*	x

Individual results from the entries so far.
COC(=O)C1=C(C)NC(=O)/C1=C\c1cccc2ccccc12 in GIV-Gai inh has 112.8
C=CCn1c(C)c(/C=C/C2=CCN(C)CC2)c2ccccc21 in HCMV NEC inh has -65.5

More records
SMILES	GIV-Gai inh	HCMV NEC inh
O=C1c2ccccc2C(=O)c2c(NC3CCCCC3)ccc(Nc3ccc(Oc4ccccc4)cc3)c21	103.6	-5.9
CCCCn1c(CCNC(=O)c2ccc(Cl)cc2)nc2ccccc21	97.7	x
Cc1cccn2c(=O)c(/C=C3/SC(=S)N(Cc4ccco4)C3=O)c(N(C)Cc3ccccc3)nc12	134.7	x
COc1cc2c(C(=O)NCCC3=CCCCC3)cn(C)c(=O)c2cc1OC	105.3	-11.7
Cc1ccc(C2CCCN2S(=O)(=O)c2ccc(C(C)C)cc2)cc1 (configuration not stated)	108.6	-30.4
N=C1/C(=C\c2cn(CCOc3ccccc3Cl)c3ccccc23)C(=O)N=C2SC=NN12	10.8*	-0.2
Cc1ccc(C)c(OCCn2cc(/C=C3\C(=N)N4N=C(S(C)(=O)=O)SC4=NC3=O)c3ccccc32)c1	100.1	-18.7
CC(=O)N1CCC(C(=O)NCc2ccc(-n3cccn3)cc2)CC1	106.8	-5.2
CC(C)CNc1cc(NCCO)c2c3c(onc13)-c1ccccc1C2=O	-54.3*	x
O=C1c2ccccc2-c2onc3c(NCCO)cc(NC4CCCCC4)c1c23	45.5*	-95.6
Cc1ccc(Sc2cc(Cl)c3noc4c3c2C(=O)c2ccccc2-4)cc1	103.1	x
CCCCNc1cc(NC2CCCCC2)c2c3c(onc13)-c1ccccc1C2=O	158.5	-12.6
CC(C)CNc1cc(Cl)c2noc3c2c1C(=O)c1ccccc1-3	-54.6*	x
CC1CC(C)CN(c2cc(NCCO)c3c4c(onc24)-c2ccccc2C3=O)C1 (configuration not stated)	118.4	-117.8
COC(=O)C1=C(C)OC(N)=C(C#N)C1c1ccc(F)cc1F (configuration not stated)	109.5	x
O=C(O)c1cccc2cccc(C(=O)O)c12	98.4	-30.5
Nc1ccc(C(=O)O)c2c(C(=O)O)cccc12	71.9*	-46.4
CN1CCN(c2ccc(NC(=O)CC34CC5CC(CC(C5)C3)C4)cc2)CC1	107.1	4.1
CCC(C(=O)Nc1cc(Cl)ccc1OC)n1nnc(C(=O)O)c1C(=O)O (configuration not stated)	103.0	-23.1
CC(C)(C)OC(=O)NC(COc1cncc(Br)c1)Cc1c[nH]c2ccccc12 (configuration not stated)	x	-8.6
O=[N+]([O-])c1cccc(N=Cc2sc3ccccc3c2O)c1	106.8	-24.4
COc1ccc(N=Cc2sc3ccccc3c2O)cc1	-32.1*	x
CCSc1ncc2c(=O)n(CC(=O)Nc3ccc(C)cc3C)cnc2n1	104.3	-9.3
CCOC(=O)C1=C(O)/C(=C/c2ccc(N3CCOCC3)o2)SC1=Nc1ccc(OCC)cc1	-15.0*	-22.3
CCOC(=O)C1=C(O)/C(=C/c2ccc(OCC)cc2)SC1=Nc1ccccc1	112.0	x
Further records.
SMILES	GIV-Gai inh	HCMV NEC inh
COc1ccc(CNC(=O)C2(C)Cc3ccccc3C(=O)N2Cc2cc(OC)cc(OC)c2)cc1 (configuration not stated)	105.3	x
Cc1ccc2c(=O)c(C(=O)c3ccccc3)cn(CC(=O)Nc3ccccc3)c2n1	113.4	x
Cc1ccc2c(=O)c(C(=O)c3ccccc3)cn(CC(=O)Nc3ccc(C)c(F)c3)c2n1	139.1	72.5*
N#Cc1c(N2CCCC(O)C2)nc(N)c2c(N)nc3c(c12)CC(=O)N3C12CC3CC(CC(C3)C1)C2 (configuration not stated)	x	80.1*
C=C(C)CN(CC)c1nc(N)c2c(N)nc3c(c2c1C#N)CC(=O)N3C12CC3CC(CC(C3)C1)C2	x	1.9
CN(C)CCCNCc1ccco1	98.8	-9.2
CN(C)CCCNCc1cccn1C	105.8	32.9*
CC(C)OC1(O)C(=O)c2ccccc2C(=O)C1(O)OC(C)C (configuration not stated)	x	99.2*
CC(C)OC1(c2ccccc2)OC(=O)c2ccccc21 (configuration not stated)	100.2	x
O=c1cc(CN2CCCc3ccccc32)nc2sccn12	-43.0*	-55.3
CCCc1nn2c(=O)cc(CN3CCCc4ccccc43)nc2s1	158.9	x
O=C(NC1CCCCC1)N1CCc2cc(S(=O)(=O)N3CCc4ccccc4C3)ccc21	97.0	-11.8
O=C(Cn1c(=O)oc2ccccc21)N1CCc2ccccc21	102.3	-11.6
CCC(=O)Oc1ccc(C=C2C(=O)NC(=O)NC2=O)cc1OC	96.3	55.9*
COc1cc(C=C2C(=O)NC(=O)NC2=O)cc(Cl)c1OCc1ccccc1Cl	107.9	3.5
COc1cc(C=C2C(=O)NC(=O)NC2=O)ccc1OC(=O)c1ccc(Cl)cc1	106.6	-5.0
C=CCc1cc(C=C2C(=O)NC(=O)NC2=O)cc(OC)c1OC	106.8	59.8*
O=C(CSc1nc2ccccc2o1)N1c2ccccc2OCC1c1ccccc1 (configuration not stated)	x	-4.1
Cc1[nH]n(-c2ccccc2)c(=O)c1N=O	x	37.9*
Cc1[nH]n(-c2ccccc2)c(=O)c1/C=N/O	97.2	-35.0
Cc1ccc(C)c(OCCCC(=O)Nc2ccc(N3CCOCC3)cc2)c1	101.5	92.1*

Profiles as entered above. Order of screens: GIV-Gai inh	HCMV NEC inh
Record of CC(=O)N1CCC(C(=O)NCc2ccc(-n3cccn3)cc2)CC1 → 106.8	-5.2
Record of CCCc1nn2c(=O)cc(CN3CCCc4ccccc43)nc2s1 → 158.9	x
Record of CCN(CC)c1ccc2cc(C#N)c(=O)oc2c1 → x	-19.5
Record of O=C(Cn1c(=O)oc2ccccc21)N1CCc2ccccc21 → 102.3	-11.6
Record of COc1ccc(N=Cc2sc3ccccc3c2O)cc1 → -32.1*	x
